Data: patent US12139488B2, “Pyrido[3,2-d]pyrimidine compounds uses thereof for treating a proliferative disease” (Universite de Montreal, priority 2021, dated 2024)
pEC50, pIC50: −log10 of the molar value.

Legend:
Calu-6 cells (KRAS Q61K) = assay: Proliferation inhibition (CellTiter-Glo), Calu-6; conditions: read-out: Calu6 Prolif. EC50; Calu6, 3 days
Protocol: (§1) All cancer cell lines (A375, A101D, A2058, RKO, HT29 SK-MEL 30, IPC298, HepG2, HCT-116, Lovo, SWV620, SW480, NCI-H358, NCI-H2122, Calu-6, NCIH2087, NCIH1755, NCIH1666 and Mewo) were obtained from ATCC and cultured in RPMI-1640 medium (Gibco) supplemented with 5% heat inactivated fetal bovine serum (FBS, Wisent) at 37° C. under 5% CO2. Cells were maintained in T175 flasks (Greiner). They were passaged by removing the culture medium, washing once in 10 mL of room temperature Phosphate Buffered Saline (PBS; Wisent) and incubating at 37° C. with 2 mL of 0.05% Trypsin (Thermo-Fisher). Trypsin was then inactivated by adding complete growth medium and the cells were then replated in a T175 culture dish at the appropriate dilution. All cell lines were routinely tested for mycoplasma contamination. Tissue type and mutational status of each cell line can be found in Table B.
(§2) CellTiter-Glo® viability analysis was conducted on cells plated in 100 μL of complete RPMI-1640 growth medium in 96-well flat-bottomed white opaque plates (Greiner or Croning) at a density indicated in Table E (for each CCL, number of cells plated per well of a 96-well plate to perform the CellTiter-Glo® cell viability assay). The cell density in cells/cm^2 would correspond to cell number divided by the area of one well of a 96-well plate (0.32 cm^2). Cells were maintained overnight at 37° C. under 5% CO2 before treatment with compounds' dilution series for 3 days.
(§3) In a dilution series 100 μL/well of test substance dilution prepared in complete RPMI-1640 growth media was added to the cells plated initially in 100 μL of growth media. The dilution series is selected so that ten concentrations cover a range from 10 μM to 0.33 nM. If necessary (as in the case of A375 cells, which were more sensitive to the compounds) the initial concentration of 10 μM is lowered to 1 μM and further dilution is carried out accordingly. The final concentration of DMSO in the assay is set at is 0.5%.
(§4) After 3 days of incubation, the growth media were removed by aspiration and 60 μL of diluted CellTiter-Glo® reagent (10 μL CellTiter-Glo® reagent+50 μL of PBS) was added to each well. Cells were allowed to lyse and to equilibrate in CellTiter-Glo® reagent by 5 min incubation on a plate shaker followed by 10 min incubation at room temperature. Luminescence signals were then acquired on a Synergy Neo2 plate reader (Biotek).
(§5) The effect of each compound dilution on the proliferation of cancer cell lines was expressed in % inhibition and calculated as follows. An internal 100% inhibition control (1 μM of trametinib; cat #HY-10999; MedChem Express; CAS #871700-17-3) was included in each plate and used as a measure of CellTiter-Glo® signal background. The value obtained for trametinib was subtracted from each data point. The average of DMSO (vehicle) controls (set as 0% inhibition) was established and used to calculate % inhibition: % inhibition=100*(1−((CellTiter-Glo® signalcompound)/(CellTiter-Glo® signalDMSO)))
(§6) The ability of each compound to inhibit proliferation was expressed as a EC50 value obtained by plotting the effect values for each data point of a dilution series and fitting the obtained curves using a log(agonist) versus response-variable slope (four parameters) function using GraphPadPrism (V7.0) or Dotmatics Screening Ultra platform.

IPC298 cells (NRAS-Q61L) = assay: Proliferation inhibition (CellTiter-Glo), IPC298; conditions: read-out: IPC298 Prolif. EC50; IPC298, 3 days
Protocol: as §1, §2, §3, §4, §5, §6

[1] = test system: pERK in SK-MEL30 cells (NRAS-Q61K); assay: Phospho-ERK inhibition (AlphaLISA), SK-MEL30; conditions: for SK-MEL30 pERK % Ymin: SK-MEL30, value in parentheses; for pIC50: read-out: SK-MEL30 pERK IC50, SK-MEL30
Protocol: as §1
(§7) AlphaLISA® SureFire® Ultra™ p-ERK 1/2 (Thr202/Tyr204) analysis was conducted on cells plated in 100 μL of complete RPMI-1640 growth medium in 96-well flat-bottomed transparent dishes (Costar) at a density indicated in Table C. Cells were maintained overnight at 37° C. under 5% CO2 before treatment with compounds' dilution series for one hour. The cell density in cells/cm^2 corresponds to cell number divided by the area of one well of a 96-well plate ([…]).
(§8) In a dilution series 100 μL/well of test substance dilution prepared in complete RPMI-1640 growth media was added to the cells. The dilution series is selected so that ten concentrations cover a range from 10 μM to 0.33 nM. If necessary the initial concentration of 10 μM is increased to 100 μM or lowered to 1 μM (as in the case of A375 and H1666 cells, which are generally more sensitive to the compounds) and further dilution is carried out accordingly. The final concentration of DMSO in the assay is set at 0.5%.
(§9) After treatment, media was removed and cells were lysed in 50 μL of 1× AlphaScreen Ultra Lysis Buffer (Perkin Elmer). The AlphaLISA® SureFire® Ultra™ p-ERK 1/2 (Thr202/Tyr2O4) (PerkinElmer) reactions were performed with 5 μL of cell lysate according to the manufacturer's specifications in 384-well proxyplates (Perkin Elmer) followed by overnight incubation of the reactions at room temperature in a humidified chamber. After completion of the reactions, the signals were recorded on an EnVision plate reader (Perkin Elmer) using built in AlphaLISA® settings.
(§10) The effect of each compound dilution on the pERK signal was expressed in % inhibition and calculated as follows. An internal 100% inhibition control ([…] trametinib, cat #HY-10999; MedChem Express; CAS #871700-17-3) was included in each plate and used as a measure of pERK background. First, the value obtained for trametinib was subtracted from each data point. The average of DMSO (vehicle) controls (set as 0% inhibition) was established and used to calculate % inhibition: % inhibition=100*(1-((pERK signalcompound)/(pERK signalDMSO)))
as §6, with “pERK signal” for “proliferation”, “an IC50” for “a EC50”, “inhibition” for “effect”
(§11) When present, paradoxical pERK induction is inferred from the negative % inhibition values observed in the pERK IC50 curves of a compound.

[2] = test system: pERK in Calu-6 cells (KRAS Q61K); assay: Phospho-ERK inhibition (AlphaLISA), Calu-6; conditions: for Calu6 pERK % Ymin: Calu6, value in parentheses; for pIC50: read-out: Calu6 pERK IC50, Calu6
Protocol: as §1, §7, §8, §9, §10
as §6, with “pERK signal” for “proliferation”, “an IC50” for “a EC50”, “inhibition” for “effect”
as §11

SW620 cells (KRAS-G12V) = assay: Proliferation inhibition (CellTiter-Glo), SW620; conditions: read-out: SW620 Prolif. EC50; SW620, 3 days
Protocol: as §1, §2, §3, §4, §5, §6

A101D cells (BRAF V600E) = assay: Proliferation inhibition (CellTiter-Glo), A101D; conditions: read-out: A101D Prolif. EC50, 3 days
Protocol: as §1, §2, §3, §4, §5, §6

For `CN(CCN1CCOCC1)S(=O)(=O)c1cn(-c2ccc3ncnc(Nc4c(F)ccc(NS(=O)(=O)c5cccc(Cl)c5Cl)c4F)c3n2)c2ccccc12`, the pEC50 (Calu-6 cells (KRAS Q61K)) was over 7.52, the pEC50 (IPC298 cells (NRAS-Q61L)) was over 7.52 and the “SK-MEL30 pERK % Ymin” value [1] was −3%. For the same molecule, the pIC50 [1] was over 7.52, the “Calu6 pERK % Ymin” value [2] was 10% and the pIC50 [2] was over 7.52. It also gave a pEC50 (SW620 cells (KRAS-G12V)) of 5.52 to 6.52 and a pEC50 (A101D cells (BRAF V600E)) of over 7.52.
For `CCC1(O)CCN(c2cccc3c2ncn3-c2ccc3ncnc(Nc4c(F)ccc(NS(=O)(=O)c5cccc(Cl)c5Cl)c4F)c3n2)CC1`, the pEC50 (Calu-6 cells (KRAS Q61K)) was over 7.52, the pEC50 (IPC298 cells (NRAS-Q61L)) was over 7.52 and the “SK-MEL30 pERK % Ymin” value [1] was 11%. The pIC50 [1] was over 7.52, the “Calu6 pERK % Ymin” value [2] was −5% and the pIC50 [2] was 6.52 to 7.52. It also gave a pEC50 (SW620 cells (KRAS-G12V)) of over 7.52 and a pEC50 (A101D cells (BRAF V600E)) of over 7.52.
In the case of `O=S(=O)(Nc1ccc(F)c(Nc2ncnc3ccc(-n4cnc5c(N6CCC(O)(C(F)(F)F)CC6)cccc54)nc23)c1F)c1cccc(Cl)c1Cl`, the pEC50 (Calu-6 cells (KRAS Q61K)) was 5.52 to 6.52, the pEC50 (IPC298 cells (NRAS-Q61L)) was over 7.52 and the “SK-MEL30 pERK % Ymin” value [1] was 6%. For the same molecule, the pIC50 [1] was over 7.52, the “Calu6 pERK % Ymin” value [2] was 1% and the pIC50 [2] was 6.52 to 7.52. For the same molecule, the pEC50 (SW620 cells (KRAS-G12V)) was over 7.52 and the pEC50 (A101D cells (BRAF V600E)) was over 7.52.
`Cc1c(F)cccc1S(=O)(=O)Nc1ccc(F)c(Nc2ncnc3ccc(-n4nc(C(=O)N(C)Cc5cccnc5)c5ccccc54)nc23)c1F` was tested, and the pEC50 (Calu-6 cells (KRAS Q61K)) was over 7.52, the pEC50 (IPC298 cells (NRAS-Q61L)) was over 7.52 and the pEC50 (SW620 cells (KRAS-G12V)) was over 7.52. The pEC50 (A101D cells (BRAF V600E)) was over 7.52.
`COc1ccc(S(=O)(=O)Nc2ccc(F)c(Nc3ncnc4ccc(-n5cc(S(=O)(=O)N(C)CCN(C)C)c6ccccc65)nc34)c2F)c(C)c1F` was tested, and the pEC50 (Calu-6 cells (KRAS Q61K)) was over 7.52, the pEC50 (IPC298 cells (NRAS-Q61L)) was over 7.52 and the “SK-MEL30 pERK % Ymin” value [1] was 3%. The pIC50 [1] was over 7.52, the “Calu6 pERK % Ymin” value [2] was −7% and the pIC50 [2] was 6.52 to 7.52. For the same molecule, the pEC50 (SW620 cells (KRAS-G12V)) was over 7.52 and the pEC50 (A101D cells (BRAF V600E)) was over 7.52.
With `Cc1c(Cl)cccc1S(=O)(=O)Nc1ccc(F)c(Nc2ncnc3ccc(-n4cnc5c(N)cccc54)nc23)c1F` the pEC50 (Calu-6 cells (KRAS Q61K)) was 5.52 to 6.52, the pEC50 (IPC298 cells (NRAS-Q61L)) was over 7.52 and the “SK-MEL30 pERK % Ymin” value [1] was 13%. For the same molecule, the pIC50 [1] was over 7.52, the “Calu6 pERK % Ymin” value [2] was 6% and the pIC50 [2] was 6.52 to 7.52. For the same molecule, the pEC50 (SW620 cells (KRAS-G12V)) was 5.52 to 6.52 and the pEC50 (A101D cells (BRAF V600E)) was over 7.52.
In the case of `O=S(=O)(Nc1ccc(F)c(Nc2ncnc3ccc(-n4nnc5ccccc54)nc23)c1F)c1cccc(Cl)c1Cl`, the pEC50 (Calu-6 cells (KRAS Q61K)) was 5.52 to 6.52, the pEC50 (IPC298 cells (NRAS-Q61L)) was over 7.52 and the “SK-MEL30 pERK % Ymin” value [1] was 0%. The pIC50 [1] was over 7.52, the “Calu6 pERK % Ymin” value [2] was −6% and the pIC50 [2] was 6.52 to 7.52. The pEC50 (SW620 cells (KRAS-G12V)) was 5.52 to 6.52 and the pEC50 (A101D cells (BRAF V600E)) was over 7.52.
